Ab-91 heavy chain CDR variants: yeast mating affinities

Data: MIT Lincoln Laboratory AlphaSeq set, Engelhart et al. 2022, doi:10.1038/s41597-022-01779-4, as distributed in FLAb.

Target peptide (SARS-CoV-2 spike, HR2 region): PDVDLGDISGINAS

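The starting antibody came from a phage panning campaign against this peptide. AAYL51 was designed without a model: most single CDR substitutions and a random sample of double and triple ones. The scFvs were displayed on barcoded MATa yeast, the peptide on MATalpha yeast. After mating in shaken culture at 30 °C for 16 h, diploids were selected and their barcode pairs sequenced. A regression on co-assayed BCL2-family reference pairs converts the normalised counts of each replicate to an apparent Kd. Each pool was mated in three replicate cultures.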

Parent scFv Ab-91: VL joined to VH by a (GGGGS)3 linker. Changes lie in the heavy chain CDRs alone.
VL: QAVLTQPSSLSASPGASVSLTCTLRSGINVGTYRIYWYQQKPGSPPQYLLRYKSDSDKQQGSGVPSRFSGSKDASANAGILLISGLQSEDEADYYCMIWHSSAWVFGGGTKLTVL
VH: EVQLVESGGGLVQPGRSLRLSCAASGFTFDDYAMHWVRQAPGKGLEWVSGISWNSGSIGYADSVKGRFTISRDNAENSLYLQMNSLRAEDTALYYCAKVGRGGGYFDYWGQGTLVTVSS

Changes read parent residue, position, new residue, counted from the first residue of the VH shown.
Scale: log10 of Kd in nM, estimated from mating counts; low values are strong binders.
A mean of the replicates is given; it leaves out those without a signal.
"nd" means that the variant was in the library but no mating with the target was seen in any replicate; the authors take this as a sign of poor binding, and no number exists.
Empty control strains, which show no peptide, gave a signal in 21% of pairings with library AAYL51; the median was 4.54 and 95% of these signals were weaker than 3.26. No background was subtracted.

| changes | mean, log10 nM | seen in |
|---|---|---|
| F27Y+D107V | 3.50 | 1/3 |
| A33H+W53F+Y105A | 4.56 | 3/3 |
| F27V+F29I+N54P | nd | 0/3 |
| I51L+G104S+Y108L | 5.31 | 2/3 |
| I51Y+I58R+S63H | nd | 0/3 |
| S52P+Y60C+G104E | nd | 0/3 |
| D30R+R101S+G104T | nd | 0/3 |
| A61H+G104D+F106Q | nd | 0/3 |
| S63P+V64P+D107E | nd | 0/3 |
| D31Q+V64P+G102E | nd | 0/3 |
| F29I+G50E+G56W | 5.56 | 1/3 |
| Y32W+M34C+S63K | nd | 0/3 |
| S52W+W53I+G102C | 5.26 | 2/3 |
| F29G+A33H+H35A | 3.95 | 1/3 |
| G26K+Y60F+V99P | 4.92 | 3/3 |
| I51H+S63C | nd | 0/3 |
| F29Y+W53T+G104N | 4.65 | 2/3 |
| G103P+Y105K | 1.16 | 3/3 |
| D31L+S57K+Y108P | 4.70 | 2/3 |
| I51T+G103R | nd | 0/3 |
| I51G+Y60F+S63T | 4.18 | 1/3 |
| M34V+F106M | 4.98 | 3/3 |
| T28W+V64Q | 2.84 | 3/3 |
| I51G+N54C+Y105E | 4.99 | 3/3 |

The remaining entries, values ahead:

| mean, log10 nM | seen in | changes |
|---|---|---|
| nd | 0/3 | V99W+G102F+F106S |
| 4.66 | 2/3 | F27C+M34Q+D107E |
| nd | 0/3 | G26L+G50V+G103D |
| 4.14 | 2/3 | S55P+G103M+G104D |
| 5.10 | 2/3 | G26Y+T28C+Y32G |
| nd | 0/3 | D30G+Y60H+G102W |
| nd | 0/3 | A61C+G103R |
| nd | 0/3 | Y32K+G50N+Y105H |
| nd | 0/3 | G26S+D30Q+F106N |
| nd | 0/3 | W53D+I58R+V99L |
| nd | 0/3 | S63K+G100V+G104C |
| 3.83 | 1/3 | F27Q+M34F+Y108V |
| 3.65 | 1/3 | G56V+D62F+D107K |
| 4.12 | 1/3 | H35Q+W53G+V99M |
| 2.15 | 3/3 | D31Q+F106M+Y108C |
| 4.85 | 3/3 | N54W+S55L+Y105P |
| 4.60 | 2/3 | F27T+H35C+S52C |
| nd | 0/3 | Y32N+A33F+W53V |
| 4.90 | 3/3 | G26L+D30V+G104F |
| 4.75 | 2/3 | Y32P+V64G+G102Q |
| 5.89 | 1/3 | M34W+I58R+S63M |
| nd | 0/3 | W53L+G102Y+F106P |
| nd | 0/3 | F29E+A61E |
| 5.87 | 1/3 | I58P+V64K+V99K |
| 4.08 | 1/3 | S52P+V99I+Y108A |

7 of these entries, quoted again:

| changes | mean, log10 nM | seen in |
|---|---|---|
| F29G+A33H+H35A | 3.95 | 1/3 |
| S63P+V64P+D107E | nd | 0/3 |
| A33H+W53F+Y105A | 4.56 | 3/3 |
| F27C+M34Q+D107E | 4.66 | 2/3 |
| Y32P+V64G+G102Q | 4.75 | 2/3 |
| G26Y+T28C+Y32G | 5.10 | 2/3 |
| I51Y+I58R+S63H | nd | 0/3 |